Source: ChEMBL document CHEMBL5500354, “Novel selective agents for the degradation of AR/AR-V7 to treat advanced prostate cancer” (Eur J Med Chem, 2024)

Key:
in vivo [1] = details: Sprague-Dawley, rat, iv
in vivo [2] = details: Sprague-Dawley, rat, po, 10 mg/kg
in vivo [3] = details: Sprague-Dawley, rat, po, 10 mg/kg; remark: listed apart in the source

half-life (in vivo [1]): 13.9 h | Cmax at 24 h (in vivo [2]): 65 nM | Tmax at 24 h (in vivo [3]): ~6 h
Compound: N#Cc1ccc(O[C@H]2CC[C@H](NC(=O)c3ccc(N4CCC(Cc5ccc(NC6CN(CCCF)C6)cc5)CC4)nn3)CC2)cc1Cl
